These results are taken from BindingDB's records for doi:10.1016/0960-894X(96)00231-4 (1996).

The assay is described as follows: Stimulation of mitogenesis in Dopamine receptor D3 transfected CHO p-5 cells.

`COc1c(C(=O)NCCN2CCN(c3cccc(Cl)c3Cl)CC2)cc(Br)c2ccccc12` [4-Bromo-1-methoxy-naphthalene-2-carboxylic acid {2-[4-(2,3-dichloro-phenyl)-piperazin-1-yl]-ethyl}-amide] yielded a 50% effective concentration (EC50) of 13 nM.
